Assays:
[1] = Dissolution of active ingredient salt in base cream / base medium; conditions: for Fraction of salt that appears to dissolve, bases 1 and 2: 1.25 molar in base creams 1 and 2, remainder finely dispersed; for Dissolution of salt in base 3: 1.25 molar in base cream 3
[2] = Decontamination (destruction) of CW agent GD, gas chromatographic analysis; conditions: tetraglyme
[3] = Decontamination (destruction) of CW agent HD, gas chromatographic analysis; conditions: tetraglyme
[4] = method I, salt:agent 1:1, salt 0.025 M
[5] = method I, salt:agent 2:1, salt 0.05 M
[6] = method II (in situ), salt:agent 1:1, salt 0.025 M
[7] = method II (in situ), salt:agent 2:1, salt 0.05 M

For [K+].[O-]c1ccccc1, the “Fraction of salt that appears to dissolve, bases 1 and 2” value (“Fraction of salt that appears” for short) [1] was “at least 75%”.
For CC(=O)C(C)=NO, the “Dissolution of salt in base 3” value [1] was “appears to dissolve completely” and the “Fraction of salt that appears” value [1] was “at least 75%”.
For CC(=NO)c1ccccc1, the “Dissolution of salt in base 3” value [1] was “appears to dissolve completely”, the “Solubility in base 4” value ([1]; 1.25 molar in base cream 4) was “appears to be soluble” and the “Fraction of salt that appears” value [1] was “at least 75%”.
In the case of COCCOCCO, the “% Decontamination at reaction time 1 min” value [2, 4] is reported as 91%, the “% Decontamination at reaction time 3 min” value [2, 4] is reported as 93% and the “% Decontamination at reaction time 1 min” value [2, 5] is reported as 100%. The “% Decontamination at reaction time 1 min” value [2, 6] was 82%, the “% Decontamination at reaction time 3 min” value [2, 6] was 77% and the “% Decontamination at reaction time 5 min” value ([2]; method II (in situ), salt:agent 1:1, salt 0.025 M, 5 min) was 80%. The “% Decontamination at reaction time 10 sec” value [3, 4] was 75%, the “% Decontamination at reaction time 1 min” value [3, 4] was 91% and the “% Decontamination at reaction time 3 min” value [3, 4] was 96%. For the same compound, the “% Decontamination at reaction time 10 sec” value [3, 5] was 99%, the “% Decontamination at reaction time 30 sec” value [3, 5] was 100% and the “% Decontamination at reaction time 1 min” value [3, 5] was 100%. For the same compound, the “% Decontamination at reaction time 10 sec” value [3, 6] was 85%, the “% Decontamination at reaction time 30 sec” value [3, 6] was 92% and the “% Decontamination at reaction time 1 min” value [3, 6] was 82%. The “% Decontamination at reaction time 3 min” value [3, 6] was 89%, the “% Decontamination at reaction time 5 min” value [3, 6] was 94% and the “% Decontamination at reaction time 10 sec” value [3, 7] was 87%. For the same compound, the “% Decontamination at reaction time 30 sec” value [3, 7] was 99%, the “% Decontamination at reaction time 1 min” value [3, 7] was 100% and the “% Decontamination at reaction time 3 min” value [3, 7] was 100%. For the same compound, the “% Decontamination at reaction time 5 min” value [3, 7] was 100%.
With CC(C)=NO the “Dissolution of salt in base 3” value [1] was “appears to dissolve completely” and the “Fraction of salt that appears” value [1] was “at least 75%”.

From patent publication US5071877A, “Metal oximate/polyethylene glycols chemicals decontaminant system” (dated 1991)
